Only a part is listed here, and it is no random draw. The source made the active and inactive calls. Cut-off read from the data, not from the text of the source: active = inhibition above about 26% (passing the limit was not always enough); inconclusive = no clear call, values can overlap the other calls.

By UniProt entry, the sequences of proteins in these tests, tags left out. Where a name states a change or a piece, a line headed by the entry shows the natural chain unless it says otherwise.
UniProt O15379: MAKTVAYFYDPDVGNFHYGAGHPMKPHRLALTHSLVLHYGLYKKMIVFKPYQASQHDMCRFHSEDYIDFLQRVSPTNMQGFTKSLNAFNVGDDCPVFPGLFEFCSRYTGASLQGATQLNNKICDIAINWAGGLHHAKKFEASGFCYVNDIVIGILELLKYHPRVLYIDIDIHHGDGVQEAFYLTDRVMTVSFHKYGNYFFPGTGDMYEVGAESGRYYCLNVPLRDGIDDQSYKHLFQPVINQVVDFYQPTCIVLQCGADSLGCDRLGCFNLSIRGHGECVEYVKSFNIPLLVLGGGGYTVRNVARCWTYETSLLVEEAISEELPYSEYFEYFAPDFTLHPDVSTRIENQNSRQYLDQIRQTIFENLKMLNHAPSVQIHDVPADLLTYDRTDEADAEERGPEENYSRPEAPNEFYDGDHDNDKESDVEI

The target in the assay is Histone deacetylase 3 (Homo sapiens) (UniProt O15379). Kind of assay: HDAC3 deacetylase inhibitors, primary screen, biochemical, fluorescence, cell-free homogeneous (AID 2718). The settings on record: recombinant HDAC3, fluorogenic peptide/trypsin coupled, at 8.3 µM, active compounds read high.
By inhibition is commonly meant the relative decrease from the control value, in per cent. As for `CS(=O)(=O)c1cc([N+](=O)[O-])c2no[n+]([O-])c2c1`, the inhibition was active: 34.3%.

In the case of `CCOP1(=S)c2c(C)nn(CCC#N)c2N=C(c2ccccc2F)N1C` (configuration not stated), the inhibition is inactive: -5.54%.

With `O=P(Nc1nccs1)(c1ccccc1)c1nc2ccccc2s1` (configuration not stated), the inhibition was inactive: 15.3%.

Take `O=P(Nc1nccs1)(Oc1ccccc1)Oc1ccccc1`: the inhibition was inactive: -3.18%.

As to `Nc1ccccc1[As](=O)(O)c1ccccc1`, the inhibition was inactive: -1.86%.

Regarding `O=C(O)COc1ccc([As](=O)(O)O)cc1[N+](=O)[O-]`, the inhibition was inactive: -0.46%.

For the compound `CCCOP(=S)(Nc1nc(N)cc(=O)[nH]1)OCCC`, the inhibition was inactive: 3.14%.

`Nc1cccc2c([As](=O)(O)O)cccc12`: the inhibition was inactive: -2.99%.

Consider `COc1cc(C2NCCC3(OCCO3)C2(C)C)cc(OC)c1OC` (configuration not stated), for which the inhibition was inactive: -0.0282%.

Consider `CCOP(=O)(Nc1cccc2ccccc12)OCC`, for which the inhibition was inactive: -8.16%.

For the compound `O=[As](O)(O)c1cccnc1`, the inhibition was inactive: -5.6%.

`CS(=O)(=O)c1ccc(Cl)c(NC(=O)COC(=O)C(O)(c2ccccc2)c2ccccc2)c1`: the inhibition was inactive: 1.03%.

Regarding `O=C(OC1CN2CCC1CC2)c1ccc(Cl)cc1` (configuration not stated), the inhibition was inactive: 0.573%.

As to `O=[As](O)(c1cccc(O)c1)c1cccc(O)c1`, the inhibition is inactive: 1.7%.

Turning to `Cc1cccc(OCC(=O)OC2CN3CCC2CC3)c1` (configuration not stated), the inhibition is inactive: -4.55%.

For the compound `COc1ccc(N/C(=N/P(=O)(N2CCOCC2)N2CCOCC2)N2CCOCC2)cc1`, the inhibition was inactive: -8.44%.

As for `O=C(OC1CN2CCC1CC2)C12CC3CC(CC(C3)C1)C2` (configuration not stated), the inhibition is inactive: 0.368%.

As to `Cc1cc(=O)[nH]c(N[N+](=O)[O-])n1`, the inhibition is inactive: 3.7%.

Take `Cc1c2c(nc3ccccc13)SC(C(Cl)Cl)C2` (configuration not stated): the inhibition is inactive: 0.0757%.

Consider `COc1ccc2nc(NP(=O)(c3ccccc3)c3ccccc3)sc2c1`, for which the inhibition was inactive: -0.664%.

With `COc1cc(I)ccc1[As](=O)(O)O`, the inhibition was inactive: 8.12%.

Consider `CC(C)c1ccc(OP(=O)(Nc2ccccn2)Oc2ccccc2F)cc1` (configuration not stated), for which the inhibition was inactive: -0.929%.

On to `ClCCSc1nnc(-c2cccnc2)o1`, for which the inhibition was inactive: 0.834%.

Take `CCN(CC)C(=S)SC(NC=O)C(Cl)(Cl)Cl` (configuration not stated): the inhibition was inactive: 1.8%.

As for `CC(C)NC(=O)NP(=O)(Oc1ccccc1)Oc1ccccc1`, the inhibition is inactive: 4.39%.

Take `O=[N+]([O-])c1cc([N+](=O)[O-])c(-c2ccn[nH]2)s1`: the inhibition was inactive: -0.295%.

Take `C[As](=O)(O)c1cccc(C(=O)O)c1`: the inhibition is inactive: 4.96%.

In the case of `O=[As](O)(c1ccc(O)cc1)c1ccccc1O`, the inhibition was inactive: 0.0444%.

For the compound `COc1cc(C(=O)NCC2(N3CCOCC3)CCCCC2)ccc1OCC(C)C`, the inhibition is inactive: -5.76%.

For `Cc1ccc2nc3c(c(C)c2c1)CC(C(Cl)Cl)S3` (configuration not stated), the inhibition is inactive: -8.39%.

In the case of `Cc1ccc(OP(=O)(Nc2ccc([N+](=O)[O-])cn2)Oc2ccc(C)cc2)cc1`, the inhibition was inactive: 6.4%.

For the compound `CCOC(=O)Nc1cccc([As](=O)(O)O)c1`, the inhibition is inactive: 4.35%.

Take `O=[N+]([O-])c1ccc(Nc2ccc(Oc3ccc([N+](=O)[O-])cc3[N+](=O)[O-])cc2)c([N+](=O)[O-])c1`: the inhibition was inactive: 1.48%.

Turning to `O=P(Nc1ccccn1)(c1cccc2ccccc12)c1cccc2ccccc12`, the inhibition was inactive: 6.44%.

For the compound `Cc1cc(SC(NC=O)C(Cl)(Cl)Cl)ncn1` (configuration not stated), the inhibition is inactive: 7.46%.

As to `Cc1cc(SC(NC(=O)c2ccccc2)C(Cl)(Cl)Cl)nc(C(C)C)n1` (configuration not stated), the inhibition is inactive: 6.05%.

Take `CCOC(=O)c1ccc(NC(=O)C(C)(CCl)SC)cc1` (configuration not stated): the inhibition was inactive: 6.19%.

Regarding `O=C(OC1CN2CCC1CC2)c1cccc([N+](=O)[O-])c1` (configuration not stated), the inhibition is inactive: 3.72%.

For `CCC(C)N(CC(C)C)C(=S)SC(NC(C)=O)C(Cl)(Cl)Cl` (configuration not stated), the inhibition is inactive: 12%.

For `COP1(=S)c2c(C)nn(CCC#N)c2N=C(c2ccc(F)cc2)N1C` (configuration not stated), the inhibition is inactive: 0.954%.

Regarding `O=C(COc1ccccc1)OC1CN2CCC1CC2` (configuration not stated), the inhibition was inactive: 2.58%.

`O=C(Nc1ccncc1[N+](=O)[O-])c1ccc([N+](=O)[O-])cc1[N+](=O)[O-]`: the inhibition was inactive: -2.14%.

The record behind these values is PubChem BioAssay AID2718 (Broad Institute, 2010).
